In PubChem BioAssay (Tox21):
This is a selection; strong and weak results do not stand in their true shares. Records with an inconclusive call do not appear. Activity calls are given as the source filed them. Calls come from the whole dose curve; as a rule, active = well fitted curve in the direction sought with a large enough effect in the repeat runs; inconclusive = weak or mixed curves; inactive = no such curve, though single readings can be large; an effect the other way counts as inactive or inconclusive.

How the values were obtained:
[1] = qHTS RealTime-Glo MT Cell Viability Assay in HEK293 cells - 0 hour (AID 1224880); settings: RealTime-Glo luminescence; note: top concentration of the series differs between compounds; nearly all actives have a fitted effect of over 45% in size
How it was run: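 Real-time viability in HEK293: signal arises when living cells convert a prosubstrate for NanoLuc in the medium, so luminescence tracks viable cell number. Compound (23 nL, DMSO) added 5 h post-seeding; kinetic reads at 0–40 h, 37 C.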

[2] = A CellTox Green Cytotoxicity Assay to monitor cytotoxicity in HepG2 cells - 0 hour (AID 1224882); settings: CellTox Green fluorescence; note: nearly all actives have a fitted effect of over 35% in size
How it was run: (§1)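 Cells and non-lytic dye reagent are dispensed together (600 HepG2 cells/well) and incubated 5 h before DMSO compound transfer. Kinetic fluorescence is then recorded in the same wells during 40 h at 37 C.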

[3] = A CellTox Green Cytotoxicity Assay to monitor cytotoxicity in HEK293 cells - 8 hour (AID 1224884); settings: CellTox Green fluorescence; note: nearly all actives have a fitted effect of over 35% in size
Source text: (§2) National Center for Advancing Translational Sciences [NCATS]
(§3) NIH Chemical Genomics Center [NCGC]
(§4) U.S. Environmental Protection Agency [EPA]
(§5) National Institutes of Environmental Health Sciences [NIEHS]
(§6) National Toxicology Program [NTP]
(§7) Cell-based models are critical for drug discovery. Determining the natural cytotoxic effects resulting from test compounds is an essential research activity. A CellTox Green Cytotoxicity Assay to monitor cytotoxicity in real time of continues cell culture during 40 hours of the compound treatment was used to screen Tox21 10K library compounds in Hek293 cells. CellTox Green Cytotoxicity Assay is a nonlytic, homogeneous, biofluorescent method to measure cytotoxicity in cell culture after experimental manipulation. The assay system uses a proprietary asymmetric cyanine dye that is excluded from viable cells but preferentially stains the dead cell's DNA. […] Viable cells produce no appreciable increases in fluorescence. Therefore, the fluorescence signal produced by the binding interaction with dead cell DNA is proportional to cytotoxicity.
(§8) The mixture of Hek293 cell suspension and reagents were dispensed at 600cells/6 ul/well in 1536-well tissue culture treated black solid bottom plates using a Multidrop dispenser. After the assay plates were incubated at a 37 C/5% CO2 incubator for 5 hours, 23 nL of compounds dissolved in DMSO, positive and negative controls was transferred to the assay plate by a pintool work station. The plates were incubated at 37 C for 40 hours. The fluorescence intensity were measured at 0h, 8h, 16h, 24h, 32h and 40h time points using ViewLux plate reader during compound treatment.

[4] = qHTS RealTime-Glo MT Cell Viability Assay in HepG2 cells - 16 hour (AID 1224885); settings: RealTime-Glo luminescence; note: nearly all actives have a fitted effect of over 50% in size
How it was run: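 qHTS, HepG2, 600 cells/well, RealTime-Glo (NanoLuc + prosubstrate) added with cells; 5 h preincubation; DMSO compound addition; 37 C; luminescence at 0/8/16/24/32/40 h.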

[5] = qHTS RealTime-Glo MT Cell Viability Assay in HEK293 cells - 8 hour (AID 1224887); settings: RealTime-Glo luminescence; note: top concentration of the series differs between compounds; nearly all actives have a fitted effect of over 50% in size
Source text: U.S. Tox21 Program National Center for Advancing Translational Sciences [NCATS] NIH Chemical Genomics Center [NCGC] U.S. Environmental Protection Agency [EPA] National Institutes of Environmental Health Sciences [NIEHS] National Toxicology Program [NTP] U.S. Food and Drug Administration [FDA] Tox21 Assay Overview: Measure of cell viability is critical in the cell-base assay. Analysis of cell viability is necessary for the characterization of cell responses to cytotoxic drugs and environmental stress. A RealTime-Glo MT Cell Viability Assay to monitor cell viability in real time of continues cell culture during 40 hours of compound treatment was used to screen Tox21 10K library compounds in Hek293 cells. The RealTime-Glo MT Cell Viability Assay is a nonlytic, homogeneous, bioluminescent method to measure cell viability in real time using a simple, plate-based method. The assay involves adding NanoLuc luciferase and a cell-permeant prosubstrate to cells in culture. Viable cells reduce the proprietary prosubstrate to generate a substrate for NanoLuc luciferase. This substrate diffuses from cells into the surrounding culture medium, where it is rapidly used by the NanoLuc Enzyme to produce a luminescent signal. The signal correlates with the number of viable cells, making the assay well suited for cytotoxicity studies.
as §8, with “Tox21 Assay Protocol Summary: The mixture” for “The mixture”, “hours. The luminescence intensity were” for “hours. The fluorescence intensity were”

[6] = A CellTox Green Cytotoxicity Assay to monitor cytotoxicity in HepG2 cells - 24 hour (AID 1224878); settings: CellTox Green fluorescence; at 76.8 µM (top of the series); note: nearly all actives have a fitted effect of over 45% in size
How it was run: as §1

[7] = A CellTox Green Cytotoxicity Assay to monitor cytotoxicity in HepG2 cells - 40 hour (AID 1224879); settings: CellTox Green fluorescence; at 76.8 µM (top of the series); note: nearly all actives have a fitted effect of over 40% in size
Source text: as §2, §3, §4, §5, §6
as §7, with “HepG2” for “Hek293”
(§9) The mixture of HepG2 cell suspension and reagents were dispensed at 600cells/6 ul/well in 1536-well tissue culture treated black solid bottom plates using a Multidrop dispenser. […] The fluorescence intensity were measured at 0h, 8h, 16h, 24h, 32h and 40h time points using ViewLux plate reader during compound treatment.

[8] = A CellTox Green Cytotoxicity Assay to monitor cytotoxicity in HEK293 cells - 32 hour (AID 1224881); settings: CellTox Green fluorescence; at 76.8 µM (top of the series); note: nearly all actives have a fitted effect of over 40% in size
How it was run: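 Cells (HEK293, 600/well) and dye reagent are dispensed together. After 5 h at 37 C, 23 nL compound is pinned in. Plates stay at 37 C for 40 h with fluorescence read at 0h, 8h, 16h, 24h, 32h and 40h.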

[9] = A CellTox Green Cytotoxicity Assay to monitor cytotoxicity in HepG2 cells - 32 hour (AID 1224883); settings: CellTox Green fluorescence; at 76.8 µM (top of the series); note: nearly all actives have a fitted effect of over 50% in size
Source text: as §2, §3, §4, §5, §6
as §7, with “HepG2” for “Hek293”
as §9

[10] = qHTS RealTime-Glo MT Cell Viability Assay in HEK293 cells - 24 hour (AID 1224886); settings: RealTime-Glo luminescence; series mostly up to 76.8 µM; note: nearly all actives have a fitted effect of over 50% in size; note: potency is the fitted concentration of half-maximal effect; for activity change, negative = cytotoxicity: top concentration of the series differs between compounds
How it was run: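 Assay medium contained NanoLuc luciferase plus cell-permeant prosubstrate, added with HEK293 cells at 600 cells/well. After 5 h at 37 C/5% CO2 compounds were added; plates stayed at 37 C for 40 h with serial luminescence reads.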
% is set by controls: 0 for no effect and ±100 for the full control effect.

Row | SMILES | activity change, negative = cytotoxicity ([1]; at 35.3 µM (top of the series)) | activity change, negative = cytotoxicity ([1]; at 76.8 µM (top of the series)) | cytotoxicity ([2]; at 35.3 µM (top of the series)) | cytotoxicity ([2]; at 76.8 µM (top of the series)) | cytotoxicity increase ([3]; at 35.3 µM (top of the series)) | cytotoxicity increase ([3]; at 76.8 µM (top of the series)) | activity change, negative = cytotoxic ([4]; at 35.3 µM (top of the series)) | activity change, negative = cytotoxic ([4]; at 76.8 µM (top of the series)) | activity change, negative = cytotoxicity ([5]; at 35.3 µM (top of the series)) | activity change, negative = cytotoxicity ([5]; at 76.8 µM (top of the series)) | cytotoxicity [6] | cytotoxicity increase [7] | cytotoxicity increase [8] | cytotoxicity increase [9] | Potency [10]
1 | CN(CCCl)CCCl | inactive: 1.65% | inactive: -1.34% | inactive: -8.82% | inactive: -0.325% | inactive: 0.654% | inactive: -10.2% | inactive: -19% | inactive: -22.9% | inactive: 0.142% | inactive: -15% | – | – | – | – | –
2 | CCC(=O)N(c1ccccc1)C1(COC)CCN(CCc2cccs2)CC1 | – | inactive: -14.5% | – | inactive: -0.0236% | – | inactive: 1.76% | – | inactive: -4.1% | – | – | inactive: 5.86% | inactive: 24.6% | inactive: 13% | inactive: 17.6% | active: 48.9 µM
3 | O=[N+]([O-])C(Cl)(Cl)Cl | – | inactive: -0.123% | – | inactive: -7.63% | – | inactive: 6.27% | – | inactive: 2.24% | – | inactive: 2.19% | inactive: -19.8% | – | inactive: 15.3% | – | inactive
4 | CCC(=O)N(c1ccccc1)C1(COC)CCN(CCn2nnn(CC)c2=O)CC1 | – | inactive: -1.67% | – | inactive: 0.405% | – | inactive: -2.04% | – | inactive: 3.25% | – | inactive: -10.1% | inactive: -5.16% | inactive: -2.08% | inactive: -7.08% | inactive: -4.93% | inactive
